For data set [1], the species on record is Rattus norvegicus. As to the kind of experiment: DrugMatrix - Regimen: Daily Repeat. As to conditions: in vivo. Set-up: regimen Daily Repeat, gender Male, age 6-8 weeks. The class given is toxicity, organism-based, Sprague-Dawley.
The species named for data set [2] is Rattus norvegicus. The class given is toxicity, organism-based, Sprague-Dawley. As to conditions: in vivo, sc, 0 mg/kg, 24 h, tissue Blood, route mini-PUMP - SUBCUTANEOUS, dose level Control, time 1 day, vehicle 100 % SALINE.
Where [3] appears, read: po, 0 mg/kg, 72 h, tissue Plasma, route oral GAVAGE, dose level Control, time 3 day, vehicle .5 % CMC.
Where [4] appears, read: po, 0 mg/kg, 120 h, tissue Plasma, route oral GAVAGE, dose level Control, time 5 day, vehicle .5 % CMC.
[5] abbreviates: po, 20 mg/kg, 72 h, tissue Plasma, route oral GAVAGE, dose level Low, time 3 day, vehicle .5 % CMC.
The mark [6] stands for this setting: po, 20 mg/kg, 120 h, tissue Plasma, route oral GAVAGE, dose level Low, time 5 day, vehicle .5 % CMC.
[7] abbreviates: po, 0 mg/kg, 72 h, tissue Plasma, route oral GAVAGE, dose level Control, time 3 day, […].
The mark [8] stands for this setting: po, 0 mg/kg, 120 h, tissue Plasma, route oral GAVAGE, dose level Control, time 5 day, […].
The mark [9] stands for this setting: ip, 0 mg/kg, […], tissue Plasma, route intraperitoneal, dose level Control, time 28 day, vehicle 100 % SALINE.
Setting [10] is: ip, 2 mg/kg, […], tissue Plasma, route intraperitoneal, dose level High, time 28 day, vehicle 100 % SALINE.

For the compound `CC(C(=O)O)c1ccc2oc(-c3ccc(Cl)cc3)nc2c1` (centres undefined) [BENOXAPROFEN], the ALBUMIN came to 3.63 G/DL in data set [1] (setting [3]); 3.73 G/DL in data set [1] (setting [4]); 3.63 G/DL in data set [1] (setting [5]); 3.93 G/DL in data set [1] (setting [6]); 3.13 G/DL in data set [1] (po, 89 mg/kg, 72 h, tissue Plasma, route oral GAVAGE, dose level High, time 3 day, vehicle .5 % CMC); 2.9 G/DL in data set [1] (po, 89 mg/kg, 120 h, tissue Plasma, route oral GAVAGE, dose level High, time 5 day, vehicle .5 % CMC). The “ALANINE AMINOTRANSFERASE” value in data set [1] (setting [6]) worked out at 36.33 u/L.

As for `CN(C)CCCN1c2ccccc2CCc2ccc(Cl)cc21` [CLOMIPRAMINE], the GLUCOSE in data set [1] (po, 70 mg/kg, 72 h, tissue Plasma, route oral GAVAGE, dose level Low, time 3 day, vehicle 100 % WATER) stood at 168.67 mg/dL.

Regarding `CN1CCN(C2=Nc3cc(Cl)ccc3Nc3ccccc32)CC1` [CLOZAPINE], the ALBUMIN in data set [1] (setting [3]) came to 4.07 G/DL; in data set [1] (setting [4]) it was 3.75 G/DL; in data set [1] (setting [5]), 3.57 G/DL; in data set [1] (setting [6]) it was 3.6 G/DL; in data set [1] (po, 95 mg/kg, 72 h, tissue Plasma, route oral GAVAGE, dose level High, time 3 day, vehicle .5 % CMC), 3.8 G/DL; in data set [1] (po, 95 mg/kg, 120 h, tissue Plasma, route oral GAVAGE, dose level High, time 5 day, vehicle .5 % CMC), 3.97 G/DL.

With `CN(C)CCOC(c1ccccc1)c1ccccc1.Cn1c(=O)c2[nH]c(Cl)nc2n(C)c1=O` [DIMENHYDRINATE], the “ABSOLUTE LYMPHOCYTE” value in data set [1] (po, 0 mg/kg, 72 h, tissue Blood, route oral GAVAGE, dose level Control, time 3 day, vehicle .5 % CMC) was determined as 13494.17 CELLS/uL; in data set [1] (po, 0 mg/kg, 120 h, tissue Blood, route oral GAVAGE, dose level Control, time 5 day, vehicle .5 % CMC), 14614 CELLS/uL; in data set [1] (po, […], 72 h, tissue Blood, route oral GAVAGE, dose 6.5 mg/Kg, dose level Low, time 3 day, vehicle .5 % CMC), 12501 CELLS/uL; in data set [1] (po, […], 120 h, tissue Blood, route oral GAVAGE, dose 6.5 mg/Kg, dose level Low, time 5 day, vehicle .5 % CMC), 17652.33 CELLS/uL.

For `CNC[C@H](O)c1ccc(O)c(O)c1` [EPINEPHRINE], the GLUCOSE in data set [1] (iv, 0.004 mg/kg, 72 h, tissue Plasma, dose level Low, time 3 day, vehicle 100 % SALINE) is 162 mg/dL; in data set [1] (iv, 0.0375 mg/kg, 120 h, tissue Plasma, dose level M1, time 5 day, vehicle 100 % SALINE), 179 mg/dL. The MONOCYTE in data set [1] (sc, 0 mg/kg, 120 h, tissue Blood, route mini-PUMP - SUBCUTANEOUS, dose level Control, time 5 day, vehicle 100 % SALINE) stood at 1.83%; in data set [2] it was 1.83%. Further, the NEUTROPHIL in data set [1] (sc, 0 mg/kg, […], tissue Blood, route mini-PUMP - SUBCUTANEOUS, dose level Control, time 14 day, vehicle 100 % SALINE) amounted to 16.5%.

As to `OCCN1CCN(CCCN2c3ccccc3Sc3ccc(C(F)(F)F)cc32)CC1` [FLUPHENAZINE], the ALBUMIN in data set [1] (setting [7]) came to 4.15 G/DL; in data set [1] (setting [8]) it was 4.15 G/DL; in data set [1] (po, 22 mg/kg, 72 h, tissue Plasma, route oral GAVAGE, dose level High, time 3 day, […]), 4.37 G/DL; in data set [1] (po, 22 mg/kg, 120 h, tissue Plasma, route oral GAVAGE, dose level High, time 5 day, […]), 4.23 G/DL; in data set [1] (po, […], 72 h, tissue Plasma, route oral GAVAGE, dose 2.5 mg/Kg, dose level Low, time 3 day), 3.9 G/DL; in data set [1] (po, […], 120 h, tissue Plasma, route oral GAVAGE, dose 2.5 mg/Kg, dose level Low, time 5 day), 4.27 G/DL.

Regarding `O=C(CCCN1CCC(O)(c2ccc(Cl)cc2)CC1)c1ccc(F)cc1` [HALOPERIDOL], the “ERYTHROCYTE COUNT” value in data set [1] (po, 1 mg/kg, 72 h, tissue Blood, route oral GAVAGE, dose level Low, time 3 day, […]) was determined as 5.37 x10E6/uL.

`CC(C)Cn1cnc2c(N)nc3ccccc3c21` [IMIQUIMOD]: the ALBUMIN came to 4.08 G/DL in data set [1] (sc, 0 mg/kg, 72 h, tissue Plasma, route subcutaneous, dose level Control, time 3 day, […]); 4.08 G/DL in data set [1] (sc, 0 mg/kg, 120 h, tissue Plasma, route subcutaneous, dose level Control, time 5 day, […]); 3.57 G/DL in data set [1] (sc, 17 mg/kg, 72 h, tissue Plasma, route subcutaneous, dose level Low, time 3 day, […]); 3.43 G/DL in data set [1] (sc, 17 mg/kg, 120 h, tissue Plasma, route subcutaneous, dose level Low, time 5 day, […]); 3.2 G/DL in data set [1] (sc, 800 mg/kg, 72 h, tissue Plasma, route subcutaneous, dose level High, time 3 day, […]); 3.13 G/DL in data set [1] (sc, 800 mg/kg, 120 h, tissue Plasma, route subcutaneous, dose level High, time 5 day, […]).

As to `CCN(CC)CCNC(=O)c1cc(Cl)c(N)cc1OC` [METOCLOPRAMIDE], the ALBUMIN in data set [1] (setting [3]) was 3.57 G/DL; in data set [1] (setting [4]), 3.72 G/DL; in data set [1] (po, 30 mg/kg, 72 h, tissue Plasma, route oral GAVAGE, dose level Low, time 3 day, vehicle .5 % CMC), 3.57 G/DL; in data set [1] (po, 30 mg/kg, 120 h, tissue Plasma, route oral GAVAGE, dose level Low, time 5 day, vehicle .5 % CMC), 3.67 G/DL.

Turning to `C1CCC(C(CC2CCCCN2)C2CCCCC2)CC1` (centres undefined) [PERHEXILINE], the ALBUMIN is on record as 3.63 G/DL in data set [1] (setting [3]); 3.73 G/DL in data set [1] (setting [4]); 3.47 G/DL in data set [1] (po, 32 mg/kg, 72 h, tissue Plasma, route oral GAVAGE, dose level Low, time 3 day, vehicle .5 % CMC); 3.87 G/DL in data set [1] (po, 32 mg/kg, 120 h, tissue Plasma, route oral GAVAGE, dose level Low, time 5 day, vehicle .5 % CMC); 3.6 G/DL in data set [1] (po, 320 mg/kg, 72 h, tissue Plasma, route oral GAVAGE, dose level High, time 3 day, vehicle .5 % CMC); 3.56 G/DL in data set [1] (po, 320 mg/kg, 120 h, tissue Plasma, route oral GAVAGE, dose level High, time 5 day, vehicle .5 % CMC).

For `OCCOCCN1CCN(C2=Nc3ccccc3Sc3ccccc32)CC1` [QUETIAPINE], in data set [1] (po, 47 mg/kg, 72 h, tissue Plasma, route oral GAVAGE, dose level Low, time 3 day, vehicle .5 % CMC), the “ALKALINE PHOSPHATASE” value is on record as 406 u/L. Moreover, in data set [1] (po, 500 mg/kg, 72 h, tissue Plasma, route oral GAVAGE, dose level High, time 3 day, vehicle .5 % CMC), the PHOSPHORUS is listed as 10.2 mg/dL.

For the compound `Cc1nc2n(c(=O)c1CCN1CCC(c3noc4cc(F)ccc34)CC1)CCCC2` [RISPERIDONE], in data set [1] (po, 22 mg/kg, 72 h, tissue Blood, route oral GAVAGE, dose level High, time 3 day, vehicle .5 % CMC), the MONOCYTE is 2.33%.

Regarding `CC/C(=C(\c1ccccc1)c1ccc(OCCN(C)C)cc1)c1ccccc1` [TAMOXIFEN], the CHLORIDE in data set [1] (setting [7]) came out at 101 MEQ/L. Besides, in data set [1] (setting [8]), the PHOSPHORUS came to 10.1 mg/dL and the SODIUM was 143.65 MEQ/L.

`CN[C@H](CC(C)C)C(=O)N[C@H]1C(=O)N[C@@H](CC(N)=O)C(=O)N[C@H]2C(=O)N[C@H]3C(=O)N[C@H](C(=O)N[C@H](C(=O)O)c4cc(O)cc(O)c4-c4cc3ccc4O)[C@H](O)c3ccc(c(Cl)c3)Oc3cc2cc(c3O[C@@H]2O[C@H](CO)[C@@H](O)[C@H](O)[C@H]2O[C@H]2C[C@](C)(N)[C@H](O)[C@H](C)O2)Oc2ccc(cc2Cl)[C@H]1O` [VANCOMYCIN] had an NEUTROPHIL in data set [1] (iv, 25 mg/kg, 72 h, tissue Blood, dose level Low, time 3 day, vehicle 100 % SALINE) of 9.33%. Further, the LIPASE in data set [1] (iv, 160 mg/kg, 72 h, tissue Plasma, dose level High, time 3 day, vehicle 100 % SALINE) turned out to be 9.33 u/L; in data set [1] (iv, 160 mg/kg, 120 h, tissue Plasma, dose level High, time 5 day, vehicle 100 % SALINE) it was 9.33 u/L.

In data set [1] (setting [9]), CADMIUM DICHLORIDE came in with a CHLORIDE of 105.4 MEQ/L. Also, in data set [1] (setting [10]), the ALBUMIN was found to be 3.47 G/DL and the PHOSPHORUS worked out at 10.17 mg/dL. Also, in data set [1] (po, […], 72 h, tissue Blood, route oral GAVAGE, dose 6.6 mg/Kg, dose level Low, time 3 day), the NEUTROPHIL amounted to 9.33%.

On to COBALTOUS CHLORIDE, for which the CHLORIDE in data set [1] (setting [9]) is 105.4 MEQ/L.

Turning to LEAD(IV) ACETATE, the ALBUMIN in data set [1] (po, 200 mg/kg, 120 h, tissue Plasma, route oral GAVAGE, dose level Low, time 5 day, vehicle 100 % SALINE) was 4.47 G/DL.

In turn, LIPOPOLYSACCHARIDE E. COLI O55:B5 registered an ALBUMIN in data set [1] (iv, 0 mg/kg, 120 h, tissue Plasma, dose level Control, time 5 day, vehicle 100 % SALINE) of 4.12 G/DL.

Turning to SODIUM NITROPRUSSIDE, the “MEAN CORPUSCULAR HEMOGLOBIN CONCENTRATION” value in data set [1] (iv, 6 mg/kg, 72 h, tissue Blood, dose level High, time 3 day, vehicle 100 % SALINE) was determined as 39.4 G/DL. The LIPASE in data set [1] (iv, […], 72 h, tissue Plasma, dose 0.12 mg/Kg, dose level Low, time 3 day, vehicle 100 % SALINE) amounted to 9.33 u/L.
